{
  "source": "patent US20020115689A1",
  "about": "“Combination therapy for treating neurodegenerative disease” (priority 1999, published 2002)",
  "system": "COX-1 and COX-2",
  "assay": "human whole blood assay (Chan, et al., JPET 290:551-560, 1999) for COX-1 and COX-2 inhibition",
  "type": "cell-based",
  "conditions": "approximate COX-2 selectivity ratio = IC50 for inhibition of COX-1 divided by IC50 for inhibition of COX-2, human whole blood assay",
  "excerpt": "The ability of a compound to inhibit COX-1 and/or COX-2 may be characterized by reference to a wide variety of assays. […] Moreover, for purposes of this patent application a COX-2 selectivity ratio is defined by the IC50 for the inhibition of COX-1 divided by the IC50 for the inhibition of COX-2 as measured by the Chan, et al., human whole blood assay.",
  "data": [
    {"smiles": "Cc1onc(-c2ccccc2)c1-c1ccc(S(N)(=O)=O)cc1", "note": "[Valdecoxib, 4-[5-methyl-3-phenyl-isoxazol-4-yl]benenesulfonamide]", "values": [
      {"measurement": "COX-1/COX-2 ratio of the IC50", "value": "30."}
    ]}
  ]
}
